# Experimental melting point values from OPERA 2.9

The melting point is given in degrees Celsius. "via" names the databases from which the curators took the value.

SMILES,mp (°C),via
Cc1cc(Cl)n2c(nc3ccccc32)c1C#N,211,OCHEM
Cc1cccc(-n2nc(C(C)(C)C)cc2N)c1,91,OCHEM
O=C1N=C(O)C2=C1CCCC2,191.6,eChemPortal
COc1ccc(C(C)=O)c2ccccc12,65,OCHEM
O=C(O)CNC1=NCCCCC1,164,OCHEM
CCCCCCCCCCCCCCCC(=O)N1C(=O)CCC1C(=O)[O-].[Na+] (stereo not drawn),62.5,eChemPortal
NS(=O)(=O)N1CCNCC1,165,OCHEM
Cc1sc(NC(=O)CCl)c(C#N)c1C,181,OCHEM
O=C(O)COc1ccc(Br)cc1Cl,147,OCHEM
O=C(O)CC1C=CS(=O)(=O)C1 (stereo not drawn),82,OCHEM
COc1cc(OC)cc(C(=O)Nc2ccc(O)c(C(=O)O)c2)c1,242,OCHEM
CCCCCCCCCCCC(=O)OCCCCCC,-6,eChemPortal
O=c1[nH]c2ccccc2c(=O)n1CCO,256.2,"OCHEM, eChemPortal"
CC1=CC(C)(C)CC(=O)C1,-40.7,eChemPortal
CCOC(=O)CCc1ccco1,24.5,PubChem
COC(=O)C(C(=O)OC)c1ccc(C(F)(F)F)cc1[N+](=O)[O-],64,OCHEM
CCn1c(N)cc(=O)[nH]c1=O,126,OCHEM
CC(C)C(NC(=O)COc1ccccc1)C(=O)O (stereo not drawn),166,OCHEM
Nc1ccc2oc(-c3ccccc3F)nc2c1,167,OCHEM
N#Cc1ccc(C(=O)N2CCOCC2)cc1,145,OCHEM
CSC(=C(C#N)C#N)N1CCOCC1,144,OCHEM
O=C(O)CNC(=O)c1ccc(-c2ccccc2)cc1,221,OCHEM
CN(C)CCN1C(=O)c2ccccc2N(C)c2ccccc21.Cl,237,OCHEM
CCCCC(CC)COC(=O)c1ccc(Nc2nc(Nc3ccc(C(=O)OCC(CC)CCCC)cc3)nc(Nc3ccc(C(=O)OCC(CC)CCCC)cc3)n2)cc1 (stereo not drawn),130,eChemPortal
Cc1ccc(Cl)cc1NC(=O)CC#N,191,OCHEM
Cc1ccc(C)c(N=Nc2c(O)ccc3ccccc23)c1,153,OCHEM
Cc1ccc2nc(C)c(C)nc2c1,92.5,OCHEM
CS(=O)(=O)N1CCC(C(=O)O)CC1,160,OCHEM
O=C(O)C(Cc1ccccc1)n1cnnn1 (stereo not drawn),163,OCHEM
CCOC(=O)[C@@]12C[C@H]1C=CCCCCN(C)C(=O)[C@@H]1C[C@H](Oc3cc(-c4nc(C(C)C)cs4)nc4c(C)c(OC)ccc34)C[C@H]1C(=O)N2,217.9,eChemPortal
CC(C)CCNC(N)=S,94,OCHEM
O=C(O)CC1SC(Nc2ccccc2)=NC1=O (stereo not drawn),203,OCHEM
CC(O)C(=O)NCCO (stereo not drawn),-53,eChemPortal
CC=C(Cl)C(=O)O,99.8,OCHEM
CC1C2CC(CC2C2CCC(O)CC2)C1(C)C (stereo not drawn),-2,eChemPortal
Cc1nc2cc(F)ccc2cc1C(=O)O,263,OCHEM
O=C(O)Cn1cccn1,140,OCHEM

Again, the 6 entries with the lowest mp:

SMILES,mp (°C),via
CC(O)C(=O)NCCO (stereo not drawn),-53,eChemPortal
CC1=CC(C)(C)CC(=O)C1,-40.7,eChemPortal
CCCCCCCCCCCC(=O)OCCCCCC,-6,eChemPortal
CC1C2CC(CC2C2CCC(O)CC2)C1(C)C (stereo not drawn),-2,eChemPortal
CCOC(=O)CCc1ccco1,24.5,PubChem
CCCCCCCCCCCCCCCC(=O)N1C(=O)CCC1C(=O)[O-].[Na+] (stereo not drawn),62.5,eChemPortal

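OPERA's authors assembled the values from existing databases and did not measure them anew. The files give a single number for a compound and property, which may rest on several reports. How each value was measured is not recorded, so precision varies. Where a salt, mixture or single isomer is drawn, the source does not say that exactly this form was tested. Some entries may be limits or estimates that an upstream database listed as plain numbers.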

Data: OPERA 2.9 data sets, kmansouri/OPERA on GitHub.